# Measurements published in ChEMBL document CHEMBL4229470, “Synthetic molecules for disruption of the MYC protein-protein interface” (Bioorg Med Chem, 2018).
# Chains of the proteins cited; added tags and fusions are not shown. Lines headed by an entry give the natural chain unless they say otherwise; changes in a name come on top.
# UniProt P01106: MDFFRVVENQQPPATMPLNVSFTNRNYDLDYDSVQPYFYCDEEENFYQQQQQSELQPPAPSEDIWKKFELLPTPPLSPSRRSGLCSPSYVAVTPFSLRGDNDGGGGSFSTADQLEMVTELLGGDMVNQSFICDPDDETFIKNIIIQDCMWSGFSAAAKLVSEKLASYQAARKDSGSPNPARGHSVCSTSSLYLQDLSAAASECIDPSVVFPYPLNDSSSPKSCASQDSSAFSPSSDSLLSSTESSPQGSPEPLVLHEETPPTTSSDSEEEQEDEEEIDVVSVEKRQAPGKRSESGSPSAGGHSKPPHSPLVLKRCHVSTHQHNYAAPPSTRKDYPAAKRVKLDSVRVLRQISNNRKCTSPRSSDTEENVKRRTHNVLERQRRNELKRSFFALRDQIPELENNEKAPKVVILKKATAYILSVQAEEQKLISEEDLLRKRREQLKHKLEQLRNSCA
# UniProt P61244: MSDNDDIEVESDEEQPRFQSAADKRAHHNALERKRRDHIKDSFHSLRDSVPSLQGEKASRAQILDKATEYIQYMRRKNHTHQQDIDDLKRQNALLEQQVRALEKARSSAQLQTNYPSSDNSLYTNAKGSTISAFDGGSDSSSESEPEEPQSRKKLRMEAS
# The source made the active and inactive calls. The rule behind the calls is not given here.
# Molecular target: c-Myc/Max (Homo sapiens) (UniProt P01106+P61244)
# Experiment: Binding affinity to His-tagged Myc/Max (unknown origin) expressed in Escherichia coli BL21 at 10 uM by Bio-FET analysis
# How it was run: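 Bio-FET chip screening at 10 μM against monomeric MAX (mMAX), MYC-MAX and MAX-MAX dimers. Heterodimers stabilized by a disulfide through a C-terminal cysteine introduced into the MYC bHLH and MAX constructs.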
smiles,measurement,value
NC(=O)c1ccc(-c2cc(-c3ccc([N+](=O)[O-])cc3)nc(-c3ccco3)c2)cc1,Activity,inactive
